# Patent publication US9801889B2, “Bicyclic heterocycles as FGFR4 inhibitors” (Incyte Corporation, priority 2015, dated 2017)
# Sequences of proteins named here, by UniProt entry; tags and fusion partners are left off. Residues count along the entry.
# UniProt P22607, 23-806: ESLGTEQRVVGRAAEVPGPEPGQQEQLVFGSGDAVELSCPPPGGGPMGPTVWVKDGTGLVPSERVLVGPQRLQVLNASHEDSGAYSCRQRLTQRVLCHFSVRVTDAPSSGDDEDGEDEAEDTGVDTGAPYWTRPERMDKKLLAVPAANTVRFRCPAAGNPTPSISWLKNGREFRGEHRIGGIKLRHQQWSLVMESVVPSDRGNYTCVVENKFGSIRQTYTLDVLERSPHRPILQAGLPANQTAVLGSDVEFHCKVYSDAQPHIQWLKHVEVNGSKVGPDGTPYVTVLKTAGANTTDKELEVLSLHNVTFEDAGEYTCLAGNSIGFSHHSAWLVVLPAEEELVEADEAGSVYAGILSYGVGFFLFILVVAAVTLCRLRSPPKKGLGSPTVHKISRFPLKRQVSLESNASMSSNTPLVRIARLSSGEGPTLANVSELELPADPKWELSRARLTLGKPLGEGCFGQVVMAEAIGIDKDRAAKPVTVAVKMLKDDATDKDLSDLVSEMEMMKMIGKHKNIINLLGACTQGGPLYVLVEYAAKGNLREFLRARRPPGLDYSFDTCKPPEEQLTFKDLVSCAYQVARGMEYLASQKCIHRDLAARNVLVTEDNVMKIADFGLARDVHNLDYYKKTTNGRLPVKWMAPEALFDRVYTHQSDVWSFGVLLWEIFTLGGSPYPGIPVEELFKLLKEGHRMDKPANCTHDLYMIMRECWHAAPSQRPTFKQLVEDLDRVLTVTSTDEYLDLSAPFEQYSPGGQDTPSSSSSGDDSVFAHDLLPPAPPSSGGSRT
# UniProt P21802, 22-821: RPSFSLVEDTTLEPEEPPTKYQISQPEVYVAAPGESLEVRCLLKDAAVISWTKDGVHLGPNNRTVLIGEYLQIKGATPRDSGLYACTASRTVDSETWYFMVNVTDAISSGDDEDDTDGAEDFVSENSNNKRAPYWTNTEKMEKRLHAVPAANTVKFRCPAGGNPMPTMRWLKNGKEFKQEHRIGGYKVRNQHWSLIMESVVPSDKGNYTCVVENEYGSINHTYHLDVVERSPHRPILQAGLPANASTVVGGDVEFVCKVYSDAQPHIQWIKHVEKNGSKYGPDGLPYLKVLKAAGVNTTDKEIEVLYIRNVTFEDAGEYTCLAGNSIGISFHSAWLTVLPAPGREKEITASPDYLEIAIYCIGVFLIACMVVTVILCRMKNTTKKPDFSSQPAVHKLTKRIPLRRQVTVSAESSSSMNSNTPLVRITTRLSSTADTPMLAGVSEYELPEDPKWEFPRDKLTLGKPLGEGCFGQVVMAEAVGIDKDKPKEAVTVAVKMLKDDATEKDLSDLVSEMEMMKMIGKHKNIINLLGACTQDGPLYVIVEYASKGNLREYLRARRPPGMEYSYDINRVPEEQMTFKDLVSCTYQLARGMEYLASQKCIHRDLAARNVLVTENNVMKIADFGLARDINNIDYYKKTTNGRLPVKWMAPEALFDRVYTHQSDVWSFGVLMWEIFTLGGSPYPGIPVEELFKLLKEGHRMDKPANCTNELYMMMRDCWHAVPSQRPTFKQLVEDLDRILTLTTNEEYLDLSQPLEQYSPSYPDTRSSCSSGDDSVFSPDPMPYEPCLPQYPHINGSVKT
# Legend:
# [1] = target: FGFR3 (Homo sapiens (Human), UniProt P22607); assay: FGFR Enzymatic Assay (FRET peptide phosphorylation), FGFR3; settings: IC50 ratio showing FGFR4 selectivity
# [2] = target: FGFR2 (Homo sapiens (Human), UniProt P21802); assay: FGFR Enzymatic Assay (FRET peptide phosphorylation), FGFR2; settings: IC50 ratio showing FGFR4 selectivity
# [3] = pre-incubated for 5 to 10 minutes
"FGFR3/FGFR4 [1, 3]",FGFR3/FGFR4 ([1]; pre-incubated for 4 hours),"FGFR2/FGFR4 [2, 3]",FGFR2/FGFR4 ([2]; pre-incubated for 4 hours),SMILES
>25,>50,–,–,"C=CC(=O)Nc1cc(-c2cc3c(cn2)CN(c2c(F)c(OC)cc(OC)c2F)C(=O)C32CC2)ccc1CO [Example 13, N-(5-(2′-(2,6-difluoro-3,5-dimethoxyphenyl)-3′-oxo-2′,3′-dihydro-1′H-spiro[cyclopropane-1,4′-[2,7]naphthyridine]-6′-yl)-2-(hydroxymethyl)phenyl)acrylamide]"
>100,>100,>50,>100,"C=CC(=O)Nc1cncc(-c2cc3c(cn2)CN(c2c(F)c(OC)cc(OC)c2F)C(=O)C32CC2)c1 [Example 3, N-(5-(2′-(2,6-difluoro-3,5-dimethoxyphenyl)-3′-oxo-2′,3′-dihydro-1′H-spiro[cyclopropane-1,4′-[2,7]naphthyridine]-6′-yl)pyridin-3-yl)acrylamide]"
>2,>10,>3,>10,"C=CC(=O)N(C)c1cccc(-c2cc3c(cn2)CN(c2c(F)c(OC)cc(OC)c2F)C(=O)C32CC2)c1 [Example 9, N-(3-(2′-(2,6-difluoro-3,5-dimethoxyphenyl)-3′-oxo-2′,3′-dihydro-1′H-spiro[cyclopropane-1,4′-[2,7]naphthyridine]-6′-yl)phenyl)-N-methylacrylamide]"
